Among the data in patent publication US6063815A, “Benzopenones useful in the treatment of insulin resistance and hyperglycemia” (American Home Products Corporation, priority 1999, dated 2000) are IC50 values, retold here.

Protein sequences, listed by entry. Tags and fused reporters are not part of them. Lines headed by an entry give the natural chain unless they say otherwise; changes in a name come on top.
UniProt P18031: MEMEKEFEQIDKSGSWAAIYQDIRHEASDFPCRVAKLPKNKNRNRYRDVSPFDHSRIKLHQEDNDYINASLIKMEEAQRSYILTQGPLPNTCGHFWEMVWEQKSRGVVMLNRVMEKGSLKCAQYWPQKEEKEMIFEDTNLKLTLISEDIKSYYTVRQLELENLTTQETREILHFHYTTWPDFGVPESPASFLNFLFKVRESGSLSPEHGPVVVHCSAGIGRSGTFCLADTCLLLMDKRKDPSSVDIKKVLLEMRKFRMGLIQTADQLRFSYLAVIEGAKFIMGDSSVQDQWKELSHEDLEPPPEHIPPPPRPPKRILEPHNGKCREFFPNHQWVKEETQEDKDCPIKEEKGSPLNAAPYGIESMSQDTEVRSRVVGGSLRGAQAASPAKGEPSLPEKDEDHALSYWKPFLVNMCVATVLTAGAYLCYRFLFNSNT

The target of the assay is recombinant, human protein tyrosine phosphatase (PTP) 1B (hPTP1B) (Homo sapiens, UniProt P18031). The experiment in a line: Inhibition of Tri-Phosphorylated Insulin Receptor Dodecaphosphopeptide Dephosphorylation by hPTP1B. Conditions: 50 μM IR triphosphopeptide substrate, 5 min at 37° C., pH 7.4.

The term IC50 denotes the concentration needed to halve the response being measured. For Ammonium molybdate tetrahydrate, the IC50 was 8.7 µM.
